The test system of test [1] is CRC patient-derived tumor organoids. The following applies: compared to control PDOs; organoid dissociation and tumor cell death.
For test [2], the system named is orthotopic MC38-derived tumors. The following applies: mouse, in vivo.
Test [3] relates to MC38-derived tumors. The experiment in a line: Subcutaneous MC38 tumor model in C57BL/6 mice. To be noted: mouse, in vivo.
In test [4] the test system is CT26-derived tumors. The experiment in a line: Subcutaneous CT26 tumor model in BALB/c mice. The following applies: mouse, in vivo.
Test [5] addresses Psmd4 (UniProt O35226). The following applies: bacterially expressed purified mouse Psmd4.
The target of test [6] is 26S immunoproteasome (Mus musculus, UniProt O35226).
The test system of test [7] is MC38-OVA tumor organoids.

The Kd is the equilibrium constant for the complex coming apart. Low values mean a tighter complex, high ones a looser complex.

Regarding `C=C1CCCC2(C)C=C3OC(=O)C(C)=C3CC12` (stereo not drawn) [ATT-I, atractylenolide I], the “vulnerability of PDOs to autologous CD8+ T cell killing” value in test [1] is reported as “more vulnerable to CD8+ T cell killing”. Moreover, the “anti-tumor effect (weight of cecal wall implanted tumors)” value in test [2] is “significantly enhanced the anti-tumor effects”. In test [3], the “additional benefit from ATT-I in the combination therapy with PD-1” value was “completely disappeared” and the tumor growth entry is “modest effects”. Moreover, in test [4], the tumor growth entry is recorded as “modest effects”. Besides, binding in test [5] was characterised by a dissociation constant (Kd) of 400 nM. For the same compound, the “effect on immunoproteasome activity after knockdown of PSMD4” value in test [6] is given as “abolished the effect of ATT-I”. Besides, in test [7], the “effect on organoids without addition of OT-I cells” value is “no notable effect” and the “killing of tumor organoids by OT-I cells” value is “markedly enhanced killing”.

These data come from US12691093B2 (THE TRUSTEES OF INDIANA UNIVERSITY, priority 2020, dated 2026).
